By IC50 is commonly meant the concentration needed to halve the response being measured.

Sequences of proteins named here, by UniProt entry; tags and fusion partners are left off. A change or cut given only in a name is not applied to a line headed by its entry.
UniProt P11511: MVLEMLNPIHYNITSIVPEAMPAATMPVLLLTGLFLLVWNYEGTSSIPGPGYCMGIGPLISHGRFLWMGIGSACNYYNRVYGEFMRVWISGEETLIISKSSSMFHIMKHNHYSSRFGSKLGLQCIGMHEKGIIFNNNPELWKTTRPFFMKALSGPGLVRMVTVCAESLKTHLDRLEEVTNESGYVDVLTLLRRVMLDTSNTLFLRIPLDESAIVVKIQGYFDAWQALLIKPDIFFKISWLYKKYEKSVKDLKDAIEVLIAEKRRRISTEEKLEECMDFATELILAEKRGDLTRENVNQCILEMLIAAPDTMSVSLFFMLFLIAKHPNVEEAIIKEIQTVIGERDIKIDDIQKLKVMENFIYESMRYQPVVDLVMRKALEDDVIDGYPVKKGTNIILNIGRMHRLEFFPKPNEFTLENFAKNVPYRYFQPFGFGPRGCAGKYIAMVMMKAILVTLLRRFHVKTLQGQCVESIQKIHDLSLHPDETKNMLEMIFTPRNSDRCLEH

Series [1] relates to rats. Details: method as in George et al. [2001]. The settings on record: ref George et al. [2001], cited from earlier work.
Series [2] deals with human recombinant CYP19A1 (Homo sapiens, UniProt P11511). The series can be described thus: Recombinant enzyme aromatase activity inhibition assay. Format: biochemical. The settings on record: read-out: IC50 of aromatase inhibition; follow-up dose–response assay. Here is the method:
An aromatase inhibition assay was also included in the in vitro assay panel. This enzyme – otherwise known as CYP19A1 - is responsible for converting androgens into estrogens (Blakemore and Naftolin 2016; Bulun 2014); therefore, chemicals that inhibit aromatase activity can lead to reduced estrogen production, which can affect reproductive and developmental processes (Kragie 2002; Tiboni and Ponzano 2016).
The metabolite, estradiol, was measured by time-resolved fluorescence according to the method described previously (Ji et al. 2014). Enzyme inhibition was calculated as a % inhibition of control enzyme activity.

In the case of isoeugenol, in series [1] (250–1000 mg/kg/day), the maternal toxicity entry was “some maternal toxicity at all does”. In series [1], the “dose with no treatment-related effects on foetuses” value is “up to 500 mg/kg/day”. Also, in series [2], the 50% inhibitory concentration (IC50) is 61 µM.

Source of the values: article PMC10761396, “Evaluation of new alternative methods for the identification of estrogenic, androgenic and steroidogenic effects: a comparative in vitro/in silico study” (Archives of Toxicology, 2023).
